From article PMC5937119 (Bioconjugate chemistry, 2017)

How the values were obtained:
[1] = target: Recombinant human liver cathepsin-B (Homo sapiens, UniProt P07858); assay: Cathepsin-B cleavage of dual-dye-labeled peptides on resin; format: biochemical; conditions: peptide on resin, supernatant at 3 and 24 h, plate reader, triplicates; Figure S4
[2] = tested on: HeLa cells; assay: Pulse treatment: internalization, intracellular cleavage; format: cell-based, human; conditions: for FRET signaling in cells by 6 h after incubation: HeLa cells incubated 1 h with PA then washed, followed for 6 h; for Intracellular localization 1 h following incubation: HeLa cells, 2.5 μM PA with 0.1 μM Alexa Fluor 647 transferrin, Figure 6
[3] = Micelle size and shape by DLS and TEM; format: physicochemical; conditions: FRET-capable PAs (Figure 3)
[4] = previously reported PA; cited from earlier work

Row | Substance | Tamra fluorescence in the media following catB addition (enzymolysis of internal p53(14–29) amino acids) [1] | FRET signaling in cells by 6 h after incubation ([2]; Figure 5) | FRET signal in cells at 3 h following incubation ([2]; HeLa cells pulsed with 2.5 μM PA for 1 h and washed, Figure 5) | Intracellular localization 1 h following incubation [2] | Micelle shape [3] | Micelle shape [4]
1 | GGG–p53(14–29): noncleavable p53(14–29) peptide on resin with FAM and Tamra fluorophores | minimal | – | – | – | – | –
2 | diC16–GGG–p53(14–29): noncleavable control p53(14–29) peptide amphiphile with diC16 tail, GGG linker, FAM and Tamra dyes | – | decreased but still remained | retained | transferrin-positive early endosomes | spherical micelles | –
3 | diC16–VC–PABA–p53(14–29): cathepsin-B cleavable p53(14–29) peptide amphiphile with diC16 tail, VC–PABA linker, FAM and Tamra dyes | – | almost undetectable | – | transferrin-positive early endosomes | spherical micelles | –
4 | diC16–p53(14–29): previously reported p53(14–29) peptide amphiphile with diC16 tail | – | – | – | – | – | rod-like, elongated micelles

Where two headings read alike, the source gives them in different places.
